Results from US8084596B2, “Regulated apoptosis” (The Board of Trustees of the Leland Stanford Junior …, priority 1993, dated 2011).

Target: MC3FE (murine; human) (UniProt P30412)
Experiment: cell-based or functional assay

(CsA)2 (peptide)
LD50 for (CsA)2-mediated cell death: 200 nM
